Test results: paper PMC6982123 (ACS chemical neuroscience, 2019)

Chains of the proteins cited; added tags and fusions are not shown. Lines headed by an entry give the natural chain unless they say otherwise; changes in a name come on top.
UniProt O15379: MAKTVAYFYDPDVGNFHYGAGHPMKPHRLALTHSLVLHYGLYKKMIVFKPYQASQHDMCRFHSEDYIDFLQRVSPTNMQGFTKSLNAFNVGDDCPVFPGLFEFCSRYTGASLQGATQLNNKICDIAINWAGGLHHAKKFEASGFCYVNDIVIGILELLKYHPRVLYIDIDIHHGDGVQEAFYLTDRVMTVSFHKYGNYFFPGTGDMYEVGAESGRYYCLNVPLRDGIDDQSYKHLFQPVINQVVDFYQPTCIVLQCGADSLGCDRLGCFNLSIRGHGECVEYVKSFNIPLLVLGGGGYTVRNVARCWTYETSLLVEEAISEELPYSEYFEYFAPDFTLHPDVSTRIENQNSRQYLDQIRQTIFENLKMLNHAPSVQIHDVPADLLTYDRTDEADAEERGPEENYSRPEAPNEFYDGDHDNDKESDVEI

Target: HDAC3 in combination with the DAD domain of NCoR2 (Homo sapiens, UniProt O15379)
Assay: HDAC inhibition continuous
Type: biochemical

## trichostatin A [Compound S1]
  Mechanism of binding HDAC3: effectively irreversible behavior
